Experiments:
BACA (HER2 WT) = assay: 72 hour drug dose-response, CellTiter-Glo cell viability; assay type: cell-based, canine
Experimental: (§1) Relative survival was measured with respect of the sensitive cell line BT474.
(§2) Sample Collection: Tumors and cell lines from 89 dogs from the Canine Comparative Oncology and Genomics Consortium (CCOGC) (11) and The Ohio State University (OSU) College of Veterinary Medicine Biospecimen Repository were included. Board-certified veterinary pathologists confirmed tumor diagnosis based on histopathology. Tumor and normal tissue samples were flash frozen in liquid nitrogen or formalin-fixed and paraffin-embedded (FFPE). Cell lines were maintained in RPMI 1640 with GlutaMAX™ (Gibco™, Thermo Fisher Scientific, #61870036) supplemented with 10% heat-inactivated fetal bovine serum at 37° C. and 5% CO2 and passaged at 90% confluence. Cell lines with known passage data (except BACA) were sequenced within the first eight passages of derivation and subsequently expanded for phenotypic studies, and were authenticated by IDEXX BioResearch (Columbia, MO) using the Cell Check Canine STR Profile and Interspecies Contamination Test or by NkX2 (or TTF-1) RT-PCR. Human cell lines included BT474 (ATCC #HTB20, HER2 focal amplification) and H1781 (ATCC #CRL-5894, HER2 […]). Blood for cell-free DNA (cfDNA) and germline DNA extraction was collected in 10 ml K2 EDTA Blood tubes (Thermo Fisher Scientific #22-253-145). Plasma separation was performed at room temperature within 1 hour (2× serial centrifugation at 2000 rpm×15 minutes). Plasma aliquots were stored frozen at −80° C. DNA extraction from plasma, white blood cells and tissue was performed with MagMAX Cell-Free DNA Isolation Kit (Thermo Fisher Scientific #A29319), DNeasy Blood and Tissue Kit (QIAGEN #69504) and Qiagen AllPrep DNA/RNA Mini Kit (QIAGEN #80204), respectively.
(§3) Cells were cultured in RPMI supplemented with 10% FBS and 1% Penicillin/Streptomycin. Luminescence was read using Synergy Mx (Biotek) plate reader. Six replicates were performed for each dose. Curve-fitting and IC50 calculations were performed using GraphPad Prism v7.00 (GraphPad Software).

OSUK9PADSn (HER2 WT) = assay: as above; assay type: cell-based, canine
Experimental: as §1, §2, §3

OSUK9PAPADO = assay: as above; assay type: cell-based, canine
Experimental: as §1, §2, §3

[1] = system: HER2-overexpressing canine cancer cell lines; settings: reference 50; cited from earlier work

For trastuzumab, the dose-dependent viability response (BACA (HER2 WT)) was “no responses at any dose”, the dose-dependent viability response (OSUK9PADSn (HER2 WT)) was “More limited responses” and the dose-dependent viability response (OSUK9PAPADO) was “More limited responses”. The “proliferation of HER2-overexpressing canine cancer cell lines” value [1] was “inhibit proliferation”.

Reference: patent US12351878B2, “Identification of HER2 mutations in lung cancer and methods of treatment” (THE TRANSLATIONAL GENOMICS RESEARCH INSTITUTE, priority 2018, dated 2025)
